Experimental data taken from PubChem BioAssay (NCI).
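Test compounds were applied to cells in 96-well plates for 48 hours at 5 doses. The concentration for 50% growth inhibition is given as GI50. TGI: total growth inhibition.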

What was measured:
Experiment in all cases: DTP human tumour cell line panel, 48 h
DU-145 prostate = test system: DU-145 prostate
SN12C renal = test system: SN12C renal
SW-620 colon = test system: SW-620 colon
EKVX NSCLC = test system: EKVX NSCLC
CAKI-1 renal = test system: CAKI-1 renal
BT-549 breast = test system: BT-549 breast
MDA-MB-231 breast = test system: MDA-MB-231 breast
LOX IMVI melanoma = test system: LOX IMVI melanoma
SNB-19 CNS = test system: SNB-19 CNS
NCI-H23 lung = test system: NCI-H23 lung
HCC-2998 colon = test system: HCC-2998 colon
HS 578T breast = test system: HS 578T breast
TK-10 renal = test system: TK-10 renal
OVCAR-5 ovarian = test system: OVCAR-5 ovarian
HOP-62 NSCLC = test system: HOP-62 NSCLC
M14 melanoma = test system: M14 melanoma
A498 renal = test system: A498 renal
OVCAR-4 ovarian = test system: OVCAR-4 ovarian
UO-31 renal = test system: UO-31 renal
CCRF-CEM leukemia = test system: CCRF-CEM leukemia
T-47D breast = test system: T-47D breast
MOLT-4 leukemia = test system: MOLT-4 leukemia
SK-MEL-2 melanoma = test system: SK-MEL-2 melanoma
UACC-62 melanoma = test system: UACC-62 melanoma
NCI/ADR-RES ovarian = test system: NCI/ADR-RES ovarian
SF-268 CNS = test system: SF-268 CNS
RXF 393 renal = test system: RXF 393 renal
IGROV1 ovarian = test system: IGROV1 ovarian
OVCAR-3 ovarian = test system: OVCAR-3 ovarian
786-0 renal = test system: 786-0 renal
SF-295 CNS = test system: SF-295 CNS
NCI-H522 lung = test system: NCI-H522 lung
MDA-N = test system: MDA-N
KM12 colon = test system: KM12 colon
HL-60(TB) leukemia = test system: HL-60(TB) leukemia
SR leukemia = test system: SR leukemia
MCF7 breast = test system: MCF7 breast
RPMI-8226 leukemia = test system: RPMI-8226 leukemia
HOP-92 NSCLC = test system: HOP-92 NSCLC
HT29 colon = test system: HT29 colon
MALME-3M melanoma = test system: MALME-3M melanoma
NCI-H460 lung = test system: NCI-H460 lung
HCT-116 colon = test system: HCT-116 colon
OVCAR-8 ovarian = test system: OVCAR-8 ovarian
A549 NSCLC = test system: A549 NSCLC
HCT-15 colon = test system: HCT-15 colon
ACHN renal = test system: ACHN renal
MDA-MB-435 = test system: MDA-MB-435
K-562 leukemia = test system: K-562 leukemia
PC-3 prostate = test system: PC-3 prostate
NCI-H226 lung = test system: NCI-H226 lung
SF-539 CNS = test system: SF-539 CNS
SK-MEL-5 melanoma = test system: SK-MEL-5 melanoma
NCI-H322M lung = test system: NCI-H322M lung
SK-MEL-28 melanoma = test system: SK-MEL-28 melanoma
UACC-257 melanoma = test system: UACC-257 melanoma
SNB-75 CNS = test system: SNB-75 CNS
COLO 205 colon = test system: COLO 205 colon
U251 CNS = test system: U251 CNS

CCCC(C)(O)C1CC23C=CC1(OC)[C@H]1Oc4c(OC)ccc5c4[C@]12CCN(CCN)[C@H]3C5 (stereo not given in full)
TGI (DU-145 prostate): > 100 µM
TGI (SN12C renal): > 100 µM
TGI (SW-620 colon): > 100 µM
TGI (EKVX NSCLC): > 100 µM
TGI (CAKI-1 renal): > 100 µM
TGI (BT-549 breast): > 100 µM
TGI (MDA-MB-231 breast): 94.8 µM
TGI (LOX IMVI melanoma): 28.5 µM
TGI (SNB-19 CNS): > 100 µM
TGI (NCI-H23 lung): > 100 µM
TGI (HCC-2998 colon): 21.4 µM
TGI (HS 578T breast): > 100 µM
TGI (TK-10 renal): > 100 µM
TGI (OVCAR-5 ovarian): > 100 µM
TGI (HOP-62 NSCLC): > 100 µM
TGI (M14 melanoma): 29.3 µM
TGI (A498 renal): > 100 µM
TGI (OVCAR-4 ovarian): > 100 µM
TGI (UO-31 renal): > 100 µM
TGI (CCRF-CEM leukemia): 58.6 µM
TGI (T-47D breast): 36.6 µM
TGI (MOLT-4 leukemia): 87.3 µM
TGI (SK-MEL-2 melanoma): 33.7 µM
TGI (UACC-62 melanoma): 51.4 µM
TGI (NCI/ADR-RES ovarian): > 100 µM
TGI (SF-268 CNS): > 100 µM
TGI (RXF 393 renal): 67.9 µM
TGI (IGROV1 ovarian): > 100 µM
TGI (OVCAR-3 ovarian): > 100 µM
TGI (786-0 renal): > 100 µM
TGI (SF-295 CNS): > 100 µM
TGI (NCI-H522 lung): > 100 µM
TGI (MDA-N): > 100 µM
TGI (KM12 colon): > 100 µM
TGI (HL-60(TB) leukemia): 65 µM
TGI (SR leukemia): 80.7 µM
TGI (MCF7 breast): > 100 µM
TGI (RPMI-8226 leukemia): 48.3 µM
TGI (HOP-92 NSCLC): > 100 µM
TGI (HT29 colon): 48.6 µM
TGI (MALME-3M melanoma): 21.4 µM
TGI (NCI-H460 lung): > 100 µM
TGI (HCT-116 colon): > 100 µM
TGI (OVCAR-8 ovarian): > 100 µM
TGI (A549 NSCLC): > 100 µM
TGI (HCT-15 colon): > 100 µM
TGI (ACHN renal): > 100 µM
TGI (MDA-MB-435): 51 µM
TGI (K-562 leukemia): 52.6 µM
TGI (PC-3 prostate): > 100 µM

O=[N+]([O-])c1cc([N+](=O)[O-])c(O)c([N+](=O)[O-])c1.O[C@@H]1CCN2CCC[C@H]12
GI50 (DU-145 prostate): > 100 µM
TGI (DU-145 prostate): > 100 µM
GI50 (SN12C renal): > 100 µM
TGI (SN12C renal): > 100 µM
GI50 (SW-620 colon): > 100 µM
TGI (SW-620 colon): > 100 µM
GI50 (EKVX NSCLC): > 100 µM
TGI (EKVX NSCLC): > 100 µM
GI50 (CAKI-1 renal): > 100 µM
TGI (CAKI-1 renal): > 100 µM
GI50 (BT-549 breast): > 100 µM
TGI (BT-549 breast): > 100 µM
GI50 (MDA-MB-231 breast): > 100 µM
TGI (MDA-MB-231 breast): > 100 µM
GI50 (NCI-H226 lung): > 100 µM
TGI (NCI-H226 lung): > 100 µM
GI50 (LOX IMVI melanoma): > 100 µM
TGI (LOX IMVI melanoma): > 100 µM
GI50 (SNB-19 CNS): > 100 µM
TGI (SNB-19 CNS): > 100 µM
GI50 (NCI-H23 lung): > 100 µM
TGI (NCI-H23 lung): > 100 µM
GI50 (HCC-2998 colon): > 100 µM
TGI (HCC-2998 colon): > 100 µM
GI50 (TK-10 renal): > 100 µM
TGI (TK-10 renal): > 100 µM
GI50 (OVCAR-5 ovarian): > 100 µM
TGI (OVCAR-5 ovarian): > 100 µM
GI50 (HOP-62 NSCLC): > 100 µM
TGI (HOP-62 NSCLC): > 100 µM
GI50 (M14 melanoma): > 100 µM
TGI (M14 melanoma): > 100 µM
GI50 (SF-539 CNS): > 100 µM
TGI (SF-539 CNS): > 100 µM
GI50 (A498 renal): > 100 µM
TGI (A498 renal): > 100 µM
GI50 (OVCAR-4 ovarian): > 100 µM
TGI (OVCAR-4 ovarian): > 100 µM
GI50 (UO-31 renal): 59 µM
TGI (UO-31 renal): > 100 µM
GI50 (SK-MEL-5 melanoma): > 100 µM
TGI (SK-MEL-5 melanoma): > 100 µM
GI50 (NCI-H322M lung): > 100 µM
TGI (NCI-H322M lung): > 100 µM
GI50 (CCRF-CEM leukemia): > 100 µM
TGI (CCRF-CEM leukemia): > 100 µM
GI50 (T-47D breast): > 100 µM
TGI (T-47D breast): > 100 µM
GI50 (MOLT-4 leukemia): > 100 µM
TGI (MOLT-4 leukemia): > 100 µM
GI50 (SK-MEL-2 melanoma): > 100 µM
TGI (SK-MEL-2 melanoma): > 100 µM
GI50 (UACC-62 melanoma): > 100 µM
TGI (UACC-62 melanoma): > 100 µM
GI50 (NCI/ADR-RES ovarian): > 100 µM
TGI (NCI/ADR-RES ovarian): > 100 µM
GI50 (SK-MEL-28 melanoma): > 100 µM
TGI (SK-MEL-28 melanoma): > 100 µM
GI50 (SF-268 CNS): > 100 µM
TGI (SF-268 CNS): > 100 µM
GI50 (RXF 393 renal): > 100 µM
TGI (RXF 393 renal): > 100 µM
GI50 (IGROV1 ovarian): > 100 µM
TGI (IGROV1 ovarian): > 100 µM
GI50 (786-0 renal): > 100 µM
TGI (786-0 renal): > 100 µM
GI50 (NCI-H522 lung): 51.5 µM
TGI (NCI-H522 lung): > 100 µM
GI50 (MDA-N): 98.5 µM
TGI (MDA-N): > 100 µM
GI50 (KM12 colon): > 100 µM
TGI (KM12 colon): > 100 µM
GI50 (HL-60(TB) leukemia): > 100 µM
TGI (HL-60(TB) leukemia): > 100 µM
GI50 (SR leukemia): > 100 µM
TGI (SR leukemia): > 100 µM
GI50 (MCF7 breast): > 100 µM
TGI (MCF7 breast): > 100 µM
GI50 (RPMI-8226 leukemia): > 100 µM
TGI (RPMI-8226 leukemia): > 100 µM
GI50 (UACC-257 melanoma): > 100 µM
TGI (UACC-257 melanoma): > 100 µM
GI50 (HOP-92 NSCLC): > 100 µM
TGI (HOP-92 NSCLC): > 100 µM
GI50 (HT29 colon): > 100 µM
TGI (HT29 colon): > 100 µM
GI50 (MALME-3M melanoma): 71.4 µM
TGI (MALME-3M melanoma): > 100 µM
GI50 (SNB-75 CNS): > 100 µM
TGI (SNB-75 CNS): > 100 µM
GI50 (COLO 205 colon): > 100 µM
TGI (COLO 205 colon): > 100 µM
GI50 (HCT-116 colon): > 100 µM
TGI (HCT-116 colon): > 100 µM
GI50 (OVCAR-8 ovarian): > 100 µM
TGI (OVCAR-8 ovarian): > 100 µM
GI50 (A549 NSCLC): > 100 µM
TGI (A549 NSCLC): > 100 µM
GI50 (U251 CNS): > 100 µM
TGI (U251 CNS): > 100 µM
GI50 (HCT-15 colon): > 100 µM
TGI (HCT-15 colon): > 100 µM
GI50 (ACHN renal): > 100 µM
TGI (ACHN renal): > 100 µM
GI50 (MDA-MB-435): 49.9 µM
TGI (MDA-MB-435): > 100 µM
GI50 (K-562 leukemia): > 100 µM
TGI (K-562 leukemia): > 100 µM
GI50 (PC-3 prostate): > 100 µM
TGI (PC-3 prostate): > 100 µM
